The values that follow come from ChEMBL document CHEMBL1142292, “Synthesis and biological activity of novel peptide mimetics as melanocortin receptor agonists” (Bioorg Med Chem Lett, 2008).

The chains behind the UniProt entries cited, without tags or fusion partners. Where a name states a change or a piece, a line headed by the entry shows the natural chain unless it says otherwise.
UniProt P41968: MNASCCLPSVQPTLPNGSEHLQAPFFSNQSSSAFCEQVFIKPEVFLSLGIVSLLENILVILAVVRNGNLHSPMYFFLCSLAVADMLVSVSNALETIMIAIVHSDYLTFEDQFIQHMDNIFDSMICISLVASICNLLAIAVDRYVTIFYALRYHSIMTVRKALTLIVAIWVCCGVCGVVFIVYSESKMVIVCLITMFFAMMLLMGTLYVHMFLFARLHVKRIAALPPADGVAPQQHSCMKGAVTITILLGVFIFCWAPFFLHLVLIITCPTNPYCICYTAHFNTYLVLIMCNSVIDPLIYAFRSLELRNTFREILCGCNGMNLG
UniProt Q01726: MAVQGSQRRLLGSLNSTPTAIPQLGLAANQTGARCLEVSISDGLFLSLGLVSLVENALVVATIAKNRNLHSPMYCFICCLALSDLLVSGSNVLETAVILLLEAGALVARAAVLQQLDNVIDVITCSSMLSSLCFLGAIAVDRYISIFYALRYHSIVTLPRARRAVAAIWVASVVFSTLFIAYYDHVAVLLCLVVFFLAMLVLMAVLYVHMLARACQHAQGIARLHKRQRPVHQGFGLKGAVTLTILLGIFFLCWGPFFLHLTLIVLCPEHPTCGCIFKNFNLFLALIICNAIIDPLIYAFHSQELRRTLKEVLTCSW

The target of one test is Melanocortin receptor 3 (Homo sapiens, UniProt P41968). The experiment in a line: Agonist activity at human MC3 receptor expressed in HEK293 cells. The class given is functional, cell-based. The method in brief:
(§1)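 HEK293 cells stably transfected with the receptor subtype and a CRE-luciferase reporter; cells assayed in 96-well format for luciferase activity. Response expressed as percent of maximal activity (Emax) of NDP-MSH (MT-I) reference agonist.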

The target of test [1] is Melanocyte-stimulating hormone receptor (Homo sapiens, UniProt Q01726). The experiment in a line: Agonist activity at human MC1 receptor expressed in HEK293 cells. Type of test: functional, cell-based. Put shortly:
as §1

Turning to `O=C(N[C@H](Cc1ccc(Cl)cc1)C(=O)N1CCC(Cn2cncn2)(C2CCCCC2)CC1)[C@H]1Cc2ccccc2CN1`, the EC50 on Melanocortin receptor 3 is 160 nM; in test [1], 5 nM.

For orientation: EC50 means the concentration needed to bring the measured effect to its halfway point.
